In paper PMC3533909:

Target: Myc-tagged wild-type hPINK1 (pBOS-3X-myc-hPINK1-WT) (human) (UniProt Q9BXM7)
Test: co-IP; 293 IL-1RI cells transfected for 42 to 48 hours, with or without 10 ng/ml IL-1β for 15 minutes, with or without co-expressed Myc-PINK1; 1% Nonidet P40 lysis buffer, 4°C

increase of the association upon IL-1β stimulation, against unstimulated cells: 60%
Substance: HA-tagged Toll-interacting protein (Tollip) (from UniProt Q9H0E2 1-274) (natural protein; other documents disagree on this pair)
